What was measured:
Type in all cases: binding
MC5R = biological target: T1, MC5R (Homo sapiens, UniProt P33032); test: NanoBRET screen HiBiT-MC5R in HEK293
T1 construct: purchased Promega (in-house HiBiT-GPCR construct library, NanoBRET)
Description: (§1) Each tracer candidate was screened across the entire library of HiBiT-GPCR constructs using NanoBRET as the detection modality. As depicted in Figure 4A, the specificity of interactions was evaluated through decrease in BRET due to competitive displacement of a bound tracer by excess parental compound. Each tracer was analyzed for binding to each HiBiT-GPCR fusion in the absence and in the presence of competing parental compound. Briefly, HEK293 cells were transfected with HiBiT-GPCR constructs diluted into promoterless DNA to reduce expression and maximize translocation to the cell surface. Each tracer candidate was then screened at concentrations of 1 μM and 0.1 μM across cells expressing these fusions. Cells were treated for 1.5 h with tracer either alone or in the presence of 20 μM competing parental compound (i.e., control). BRET was measured upon addition of purified LgBiT and subsequent complementation with HiBiT genetically fused to a GPCR. The specificity of interactions was assessed through a decrease in BRET signal due to competitive displacement of the bound tracer. To further gauge the robustness of these interactions, the fold response over the control (i.e., BRETtracer/BRETcontrol) was calculated. We chose a 1.5-fold response, which translates to ≥7-fold signal over noise as the minimal threshold required to score an interaction as positive. […]. Below we highlight the screening results obtained for our exemplary fluorescent tracers based on Clozapine, Amitriptyline and AZD1283.
(§2) HiBiT-GPCR DNA constructs were diluted in 10 mM Tris pH 8 to a final concentration of 0.01 μg/μL, arrayed in 96-well plates and stored at −20 °C. For transfection, HEK293 cells were suspended in Opti-MEM (without phenol red) supplemented with 2% fetal bovine serum (Seradigm) and 100 units/mL penicillin–streptomycin (Gibco) at a final concentration of 220,000 cells/mL and dispensed into white 96-well plates at 90 μL/well. Subsequent transfections and screens were carried using an Agilent Bravo Automated Liquid Handling Platform. First, the 96-well HiBiT DNA arrays were diluted 25-fold in Opti-MEM (without serum or phenol red) to a final concentration of 0.0004 μg/μL and 20 μL of the diluted DNAs were transferred into new 96-well plates. Next, promoterless carrier DNA (1 μg/μL) was diluted 25-fold (0.04 μg/μL) and then dispensed into the diluted arrays at 20 μL/well. Following brief mixing, Viafect transfection reagent (Promega) diluted 16-fold into Opti-MEM was dispensed into the plates at 40 μL/well. After mixing by pipetting, plates were incubated for 10 min on the pipetting station deck. The DNA-transfection reagent complexes were then added to plates containing cells. To facilitate the screen, 10 μL of DNA-transfection reagent complexes were added in duplicates to the top 4 and bottom 4 rows, resulting in two identical 48-well arrays per plate. Plates with transfected cells were incubated for 18–20 h at 37 °C/5% CO2. A screen of each tracer across the entire library using two different concentrations requires duplicate plates of transfected cells. Depending on the number of tracers being screened, transfections can be scaled up using the same ratios. The next day, for each tracer, four 20× screening solutions in tracer dilution buffer (Promega) were prepared: two duplicates at final concentration of 20 μM and two duplicates at a final concentration of 2 μM. A competing unmodified compound was added to one of each duplicate at a final concentration of 400 μM. […]

By UniProt entry, the sequences of proteins in these tests, tags left out. Where a name states a change or a piece, a line headed by the entry shows the natural chain unless it says otherwise.
UniProt P33032: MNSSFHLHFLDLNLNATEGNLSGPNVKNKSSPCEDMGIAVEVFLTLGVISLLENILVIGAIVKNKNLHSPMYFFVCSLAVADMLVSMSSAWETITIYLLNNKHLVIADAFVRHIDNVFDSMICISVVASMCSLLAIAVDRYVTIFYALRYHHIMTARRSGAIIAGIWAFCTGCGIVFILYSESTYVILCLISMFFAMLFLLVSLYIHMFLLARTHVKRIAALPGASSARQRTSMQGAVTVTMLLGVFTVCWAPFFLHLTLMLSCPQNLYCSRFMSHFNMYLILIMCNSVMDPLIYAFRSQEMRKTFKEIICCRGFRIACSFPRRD
UniProt Q9GZQ6: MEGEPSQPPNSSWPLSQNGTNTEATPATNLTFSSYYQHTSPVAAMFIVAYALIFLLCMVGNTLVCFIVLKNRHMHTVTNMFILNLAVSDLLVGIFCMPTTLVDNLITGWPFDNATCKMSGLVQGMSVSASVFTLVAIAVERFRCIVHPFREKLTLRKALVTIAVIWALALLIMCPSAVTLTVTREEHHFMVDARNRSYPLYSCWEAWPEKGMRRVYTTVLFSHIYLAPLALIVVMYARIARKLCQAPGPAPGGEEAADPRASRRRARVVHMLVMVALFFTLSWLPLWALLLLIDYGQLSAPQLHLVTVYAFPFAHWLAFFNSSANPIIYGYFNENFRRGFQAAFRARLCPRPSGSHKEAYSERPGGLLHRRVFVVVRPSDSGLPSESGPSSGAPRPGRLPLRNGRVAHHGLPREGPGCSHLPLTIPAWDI
UniProt P25103, whole entry: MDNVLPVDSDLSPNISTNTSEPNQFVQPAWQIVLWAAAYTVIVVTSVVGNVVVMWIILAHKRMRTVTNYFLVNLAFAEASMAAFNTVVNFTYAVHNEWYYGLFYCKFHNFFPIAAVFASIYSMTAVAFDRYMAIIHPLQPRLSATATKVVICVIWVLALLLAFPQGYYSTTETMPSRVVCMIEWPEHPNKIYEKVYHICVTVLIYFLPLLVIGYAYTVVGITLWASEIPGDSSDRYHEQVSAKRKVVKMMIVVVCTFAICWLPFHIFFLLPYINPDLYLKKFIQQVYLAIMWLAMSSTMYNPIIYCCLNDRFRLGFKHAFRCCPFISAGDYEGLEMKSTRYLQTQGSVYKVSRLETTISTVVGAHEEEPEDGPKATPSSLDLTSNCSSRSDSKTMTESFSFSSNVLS
UniProt P25100, whole entry: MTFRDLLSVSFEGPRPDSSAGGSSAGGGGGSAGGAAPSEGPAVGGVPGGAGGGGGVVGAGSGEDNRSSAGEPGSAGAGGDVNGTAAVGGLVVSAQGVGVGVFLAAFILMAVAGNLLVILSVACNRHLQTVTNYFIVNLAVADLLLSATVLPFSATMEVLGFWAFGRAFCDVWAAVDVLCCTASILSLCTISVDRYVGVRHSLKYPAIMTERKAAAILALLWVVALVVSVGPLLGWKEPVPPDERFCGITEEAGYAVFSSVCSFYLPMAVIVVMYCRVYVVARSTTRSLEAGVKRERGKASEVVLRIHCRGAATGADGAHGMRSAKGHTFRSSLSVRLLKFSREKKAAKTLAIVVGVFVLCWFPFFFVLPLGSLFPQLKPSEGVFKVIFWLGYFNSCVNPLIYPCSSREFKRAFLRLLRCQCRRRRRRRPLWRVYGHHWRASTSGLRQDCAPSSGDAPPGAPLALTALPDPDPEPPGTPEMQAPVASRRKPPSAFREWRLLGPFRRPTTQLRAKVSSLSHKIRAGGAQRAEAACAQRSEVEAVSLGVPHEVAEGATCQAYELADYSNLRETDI
UniProt P08912, whole entry: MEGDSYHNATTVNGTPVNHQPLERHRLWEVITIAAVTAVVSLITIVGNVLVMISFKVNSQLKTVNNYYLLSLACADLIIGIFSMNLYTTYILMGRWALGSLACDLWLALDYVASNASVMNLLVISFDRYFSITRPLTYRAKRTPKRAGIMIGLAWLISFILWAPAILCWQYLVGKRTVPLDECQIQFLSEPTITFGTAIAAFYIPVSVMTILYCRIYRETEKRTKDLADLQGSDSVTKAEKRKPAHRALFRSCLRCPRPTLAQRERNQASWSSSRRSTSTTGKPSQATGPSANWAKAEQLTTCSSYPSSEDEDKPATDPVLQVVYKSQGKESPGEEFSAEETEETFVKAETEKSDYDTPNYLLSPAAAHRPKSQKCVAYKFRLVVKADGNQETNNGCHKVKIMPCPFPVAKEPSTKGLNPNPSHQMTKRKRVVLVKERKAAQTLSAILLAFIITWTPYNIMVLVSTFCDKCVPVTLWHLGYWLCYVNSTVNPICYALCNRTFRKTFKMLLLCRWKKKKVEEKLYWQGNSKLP

NPFFR1 = biological target: T2, NPFFR1 (Homo sapiens, UniProt Q9GZQ6); test: NanoBRET screen HiBiT-NPFFR1 in HEK293
T2 construct: purchased Promega (in-house HiBiT-GPCR construct library, NanoBRET)
Description: as §1, §2

TACR1 = biological target: T3, TACR1 (Homo sapiens, UniProt P25103); test: NanoBRET screen HiBiT-TACR1 in HEK293
T3 construct: purchased Promega (in-house HiBiT-GPCR construct library, NanoBRET)
Description: as §1, with “Below we highlight the screening results obtained for our exemplary fluorescent tracers based on Clozapine, Amitriptyline and AZD1283.” left out

CYSLTR1 = biological target: T4, CYSLTR1 (Homo sapiens, UniProt Q9Y271); test: NanoBRET screen HiBiT-CYSLTR1 in HEK293
T4 construct: purchased Promega (in-house HiBiT-GPCR construct library, NanoBRET)
T4 sequence (Q9Y271 1-337): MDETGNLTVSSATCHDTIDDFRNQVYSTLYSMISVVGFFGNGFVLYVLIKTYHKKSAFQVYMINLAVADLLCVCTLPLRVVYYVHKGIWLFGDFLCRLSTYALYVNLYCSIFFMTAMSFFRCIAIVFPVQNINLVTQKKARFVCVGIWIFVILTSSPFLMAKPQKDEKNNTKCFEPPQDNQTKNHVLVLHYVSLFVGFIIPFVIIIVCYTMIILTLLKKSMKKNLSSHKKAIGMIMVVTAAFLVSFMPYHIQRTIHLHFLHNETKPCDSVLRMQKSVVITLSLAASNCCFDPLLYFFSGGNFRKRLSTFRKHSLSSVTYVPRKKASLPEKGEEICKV
Description: as §1, with “Below we highlight the screening results obtained for our exemplary fluorescent tracers based on Clozapine, Amitriptyline and AZD1283.” left out

ADRA1D = biological target: T5, ADRA1D (Homo sapiens, UniProt P25100); test: NanoBRET screen HiBiT-ADRA1D in HEK293
T5 construct: purchased Promega (in-house HiBiT-GPCR construct library, NanoBRET)
Description: (§3) Each tracer candidate was screened across the entire library of HiBiT-GPCR constructs using NanoBRET as the detection modality. As depicted in Figure 4A, the specificity of interactions was evaluated through decrease in BRET due to competitive displacement of a bound tracer by excess parental compound. Each tracer was analyzed for binding to each HiBiT-GPCR fusion in the absence and in the presence of competing parental compound. Briefly, HEK293 cells were transfected with HiBiT-GPCR constructs diluted into promoterless DNA to reduce expression and maximize translocation to the cell surface. Each tracer candidate was then screened at concentrations of 1 μM and 0.1 μM across cells expressing these fusions. Cells were treated for 1.5 h with tracer either alone or in the presence of 20 μM competing parental compound (i.e., control). BRET was measured upon addition of purified LgBiT and subsequent complementation with HiBiT genetically fused to a GPCR. The specificity of interactions was assessed through a decrease in BRET signal due to competitive displacement of the bound tracer. To further gauge the robustness of these interactions, the fold response over the control (i.e., BRETtracer/BRETcontrol) was calculated. We chose a 1.5-fold response, which translates to ≥7-fold signal over noise as the minimal threshold required to score an interaction as positive.
HiBiT-GPCR DNA constructs were diluted in 10 mM Tris pH 8 to a final concentration of 0.01 μg/μL, arrayed in 96-well plates and stored at −20 °C. For transfection, HEK293 cells were suspended in Opti-MEM (without phenol red) supplemented with 2% fetal bovine serum (Seradigm) and 100 units/mL penicillin–streptomycin (Gibco) at a final concentration of 220,000 cells/mL and dispensed into white 96-well plates at 90 μL/well. Subsequent transfections and screens were carried using an Agilent Bravo Automated Liquid Handling Platform. […]

CHRM5 = biological target: T6, CHRM5 (Homo sapiens, UniProt P08912); test: NanoBRET screen HiBiT-CHRM5 in HEK293; settings: CHRM5; 1μM tracer
T6 construct: purchased Promega (in-house HiBiT-GPCR construct library, NanoBRET)
Description: as §3, with “positive. […]. […]” for “positive.”

FZD10 = biological target: T7, FZD10 (Homo sapiens, UniProt Q9ULW2); test: NanoBRET screen HiBiT-FZD10 in HEK293; settings: 1μM tracer
T7 construct: purchased Promega (in-house HiBiT-GPCR construct library, NanoBRET)
T7 sequence (Q9ULW2 21-581): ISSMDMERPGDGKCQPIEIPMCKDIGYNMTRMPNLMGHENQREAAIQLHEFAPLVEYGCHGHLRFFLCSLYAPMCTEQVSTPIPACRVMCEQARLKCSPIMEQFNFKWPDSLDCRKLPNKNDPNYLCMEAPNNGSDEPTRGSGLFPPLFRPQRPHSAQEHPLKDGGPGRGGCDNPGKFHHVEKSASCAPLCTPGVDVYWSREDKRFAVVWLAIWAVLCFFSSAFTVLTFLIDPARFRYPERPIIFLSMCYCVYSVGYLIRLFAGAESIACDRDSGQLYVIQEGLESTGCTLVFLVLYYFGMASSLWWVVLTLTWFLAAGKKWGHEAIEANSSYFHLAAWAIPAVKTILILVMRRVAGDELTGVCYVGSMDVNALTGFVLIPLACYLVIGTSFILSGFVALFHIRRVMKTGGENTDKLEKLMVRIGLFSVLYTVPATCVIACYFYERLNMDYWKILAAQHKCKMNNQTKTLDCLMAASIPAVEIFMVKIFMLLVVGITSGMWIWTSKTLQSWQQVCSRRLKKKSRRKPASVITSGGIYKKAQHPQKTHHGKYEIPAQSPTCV
Description: as §3, with “positive. […]. […]” for “positive.”

Question: For `O=C(CCOCCOCCOCCOCCNC(=O)CCc1ccc2n1[B-](F)(F)[N+]1=C(c3ccc[nH]3)C=CC1=C2)NCCCN1CCN(C2=Nc3ccccc3Oc3ccc(Cl)cc32)CC1` [Loxapine-a-2-NB590], which “NanoBRET Fold Response” value (MC5R; tracer 1μM) is on record?
Answer: The value was 1.03.

Question: With `CCOC(=O)c1cc(C#N)c(N2CCC(C(=O)NS(=O)(=O)Cc3ccccc3/C=C/C(=O)NCCNC(=O)CCc3ccc4n3[B-](F)(F)[N+]3=C(c5ccc[nH]5)C=CC3=C4)CC2)nc1C` [AZD1283-1-NB590] as the compound, how does the “NanoBRET Fold Response” value (MC5R; 0.1μM) read?
Answer: Its value is 1.03.

Question: `COc1ccc2[nH]c(-c3ccc(CNC(=O)CCOCCOCCOCCOCCNC(=O)CCc4ccc5n4[B-](F)(F)[N+]4=C(c6ccc[nH]6)C=CC4=C5)cc3)c(CCNC(C)=O)c2n1` [AzomelatoninICO9-2-NB590] was tested. Which “NanoBRET Fold Response” value (NPFFR1; 0.1μM tracer) did it give?
Answer: Its value is 1.03.

Question: With `CCCn1c(=O)c2[nH]c(-c3ccc(OCC(=O)NCCNC(=O)CCOCCNC(=O)c4ccc(CNC(=O)CCc5ccc6n5[B-](F)(F)[N+]5=C(c7ccc[nH]7)C=CC5=C6)cc4)cc3)nc2n(CCC)c1=O` [XAC-3-NB590] as the compound, how does the “NanoBRET Fold Response” value (TACR1; tracer 0.1μM) read?
Answer: The value was 1.03.

Question: What about the “NanoBRET Fold Response” value (TACR1; tracer 1μM) of the same compound?
Answer: Its value is 1.03.

Question: What about the “NanoBRET Fold Response” value (CYSLTR1; tracer 0.1μM) of the same compound?
Answer: The value was 1.03.

Question: `COc1ccccc1N1CCN(CCCCN2C(=O)c3ccc(CNC(=O)CCOCCNC(=O)c4ccc(CNC(=O)CCc5ccc6n5[B-](F)(F)[N+]5=C(c7ccc[nH]7)C=CC5=C6)cc4)cc3C2=O)CC1` [NAN-190-3-NB590] was tested. Which “NanoBRET Fold Response” value (ADRA1D; tracer 0.1μM) did it give?
Answer: Its value is 1.03.

Question: Which “NanoBRET Fold Response” value (NPFFR1; tracer at 1μM) does the source give for `CN(C)CCC=C1c2ccccc2CCc2ccc(C(=O)NCCNC(=O)CCOCCOCCOCCOCCNC(=O)CCc3ccc4n3[B-](F)(F)[N+]3=C(c5ccc[nH]5)C=CC3=C4)cc21` [Amitriptyline-b-2-NB590] here?
Answer: The value was 1.03.

Question: `O=C(CCOCCOCCOCCOCCNC(=O)CCc1ccc2n1[B-](F)(F)[N+]1=C(c3ccc[nH]3)C=CC1=C2)NCCCN1CCN(C2=Nc3cc(Cl)ccc3Nc3ccccc32)CC1` [Clozapine-a-2-NB590] was tested. Which “NanoBRET Fold Response” value (MC5R; 1μM tracer) did it give?
Answer: The value was 1.03.

Question: What about the “NanoBRET Fold Response” value (NPFFR1; NPFFR1, 0.1μM tracer) of the same compound?
Answer: Its value is 1.03.

Question: With `CN1CCN(C2=Nc3cc(Cl)ccc3Nc3ccc(CNC(=O)CCOCCOCCOCCOCCNC(=O)CCc4ccc5n4[B-](F)(F)[N+]4=C(c6ccc[nH]6)C=CC4=C5)cc32)CC1` [Clozapine-b-2-NB590] as the compound, how does the “NanoBRET Fold Response” value (CHRM5) read?
Answer: The value was 1.04.

Question: How did the “NanoBRET Fold Response” value (FZD10) turn out when `CN1CCN(C2=Nc3cc(Cl)ccc3N(CC(=O)NCCOCCOCCOCCOCCNC(=O)CCc3ccc4n3[B-](F)(F)[N+]3=C(c5ccc[nH]5)C=CC3=C4)c3ccccc32)CC1` [Clozapine-c-2-NB590] was run?
Answer: The value was 1.03.

Question: Which “NanoBRET Fold Response” value (ADRA1D; tracer 1μM) does the source give for `N#CN=C(NCCCOc1cccc(CN2CCCCC2)c1)NCCNC(=O)CCOCCOCCOCCOCCNC(=O)CCc1ccc2n1[B-](F)(F)[N+]1=C(c3ccc[nH]3)C=CC1=C2` [Aminopotentidine-2-NB590] here?
Answer: Its value is 1.03.

Question: How did the “NanoBRET Fold Response” value (CYSLTR1; 1μM) turn out when `O=C(CCc1ccc2n1[B-](F)(F)[N+]1=C(c3ccc[nH]3)C=CC1=C2)NCc1ccc(C(=O)NCCOCCOCCNCC(O)COc2cccc3ccccc23)cc1` (centres unmarked) [Propranolol-3-NB590] was run?
Answer: Its value is 1.03.

From PMC8151276, “An Integrated Approach toward NanoBRET Tracers for Analysis of GPCR Ligand Engagement” (Molecules, 2021)
